{
  "source": "patent US8129349B2",
  "about": "“Treatment of disease by inducing cell apoptosis” (The Regents of the University of California, priority 2000, dated 2012)",
  "origin": "cited, not measured here",
  "target": "T1, procaspase 1 (Homo sapiens, UniProt P29466)",
  "T1 sequence (P29466 1-404)": "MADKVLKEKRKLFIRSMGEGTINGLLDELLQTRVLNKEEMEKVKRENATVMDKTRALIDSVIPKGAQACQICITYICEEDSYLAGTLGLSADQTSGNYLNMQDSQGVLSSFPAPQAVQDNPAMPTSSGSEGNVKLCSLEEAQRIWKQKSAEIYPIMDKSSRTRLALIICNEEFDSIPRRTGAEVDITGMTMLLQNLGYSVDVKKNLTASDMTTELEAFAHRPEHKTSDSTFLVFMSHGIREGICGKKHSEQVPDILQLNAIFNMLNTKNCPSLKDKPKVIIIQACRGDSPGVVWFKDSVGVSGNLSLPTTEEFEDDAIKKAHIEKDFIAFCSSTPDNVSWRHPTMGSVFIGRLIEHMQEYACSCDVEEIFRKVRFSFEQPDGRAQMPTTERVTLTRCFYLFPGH",
  "conditions": "cited from earlier work",
  "note": "pKi: −log10 of the molar value.",
  "data": [
    {"substance": "DEVD-CHO", "values": [
      {"measurement": "pKi", "result": 7.77}
    ]}
  ]
}
